## Yeast mating assay 1: variants of the scFv Ab-14

Data: MIT Lincoln Laboratory AlphaSeq set, Engelhart et al. 2022, doi:10.1038/s41597-022-01779-4, as distributed in FLAb.

All variants were tested on one target, the spike HR2 peptide PDVDLGDISGINAS (SARS-CoV-2).

Parent scFv Ab-14: VH joined to VL by a (GGGGS)3 linker. Changes lie in the light chain CDRs alone.
VH: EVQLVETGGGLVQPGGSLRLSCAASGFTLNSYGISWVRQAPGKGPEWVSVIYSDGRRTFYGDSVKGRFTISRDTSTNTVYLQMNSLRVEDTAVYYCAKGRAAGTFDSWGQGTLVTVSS
VL: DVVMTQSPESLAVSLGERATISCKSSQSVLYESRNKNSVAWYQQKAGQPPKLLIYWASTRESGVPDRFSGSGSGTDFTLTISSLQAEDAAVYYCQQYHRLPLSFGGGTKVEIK

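Phage display of a naive human antibody library on the peptide gave the parent. AAYL50 was designed without a model: most single CDR substitutions and a random sample of double and triple ones. The scFvs were displayed on barcoded MATa yeast, the peptide on MATalpha yeast. The frequency of each diploid, read from paired DNA barcodes, reflects how well the two displayed proteins bind. The ratio of observed to expected reads was calibrated, replicate by replicate, on BCL2-family standards whose Kd was known from biolayer interferometry. Mating was done three times.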

Positions count from residue 1 of the parent VL; S26H puts H in place of S.
Affinities are written as log10 Kd with Kd in nM; a lower number is a better binder.
Where no diploid with the target was found in that replicate, the entry reads "nd": below detection, most likely a poor binder, though not proof of it.
Parent in this assay: reference entry 0.65, copy in this library 1.68.
Background: pairings of library AAYL50 with three empty control strains gave a value in 18% of cases (median 4.19, 5th percentile 2.99). Values in that range, when seen in few replicates, are hard to tell from nonspecific mating. Also given: how often the same scFv was detected with the empty control strains.

The variant S26H S33A K36E showed 1.00, 1.11, 0.94 (controls 2 of 9).
The variant S25E A57K H98W showed nd, nd, nd (controls 0 of 9).
The variant S25Y L30W L102V showed 0.71, 0.99, 0.73 (controls 0 of 9).
The variant S28G K36C V39K showed nd, nd, nd (controls 0 of 9).
The variant S33T W56E R60P showed 0.08, 0.54, 0.29 (controls 0 of 9).
The variant Y31E S38E P101M showed nd, nd, nd (controls 3 of 9).
The variant K36Y A57V showed nd, nd, nd (controls 1 of 9).
The variant E32T Y97P S103C showed 4.76, 4.00, nd (controls 3 of 9).
The variant S28I L30Y showed 1.11, 1.09, 1.10 (controls 5 of 9).
The variant S26Q Q27N S103K showed 1.99, 2.08, 2.33 (controls 1 of 9).
The variant S26Q K36M Y97M showed nd, nd, nd (controls 0 of 9).
The variant S26F N35S A57Y showed nd, nd, nd (controls 1 of 9).
The variant Y31L H98Q P101M showed 0.29, 0.71, 0.64 (controls 0 of 9).
The variant Q96A Y97V showed nd, nd, nd (controls 2 of 9).
The variant S33V T59Y Y97S showed nd, 3.81, 3.07 (controls 0 of 9).
The variant S26Y N35V V39D showed nd, nd, 4.65 (controls 1 of 9).
The variant S26P R34A R60G showed nd, 2.99, nd (controls 3 of 9).
The variant Q27G K36V L102K showed nd, nd, nd (controls 0 of 9).
The variant Q27V T59G S103Q showed nd, nd, nd (controls 0 of 9).
The variant R34E R60C E61N showed 2.69, 2.49, 2.66 (controls 3 of 9).
The variant L30C P101M S103A showed 1.69, 1.39, 1.51 (controls 0 of 9).
The variant N35W S58F E61Y showed 3.60, nd, 3.65 (controls 3 of 9).
The variant E32S Q95D R99F showed nd, nd, nd (controls 0 of 9).
The variant S33L H98F showed 3.04, 4.33, nd (controls 1 of 9).
The variant S26V W56S T59K showed 0.08, 0.34, 0.23 (controls 4 of 9).
The variant N37G W56K Y97S showed 4.58, nd, 4.62 (controls 5 of 9).
The variant S28H K36E Q95W showed nd, nd, nd (controls 1 of 9).
The variant Q27Y W56P S58W showed nd, 5.38, nd (controls 3 of 9).
The variant T59W H98V L102V showed nd, nd, nd (controls 0 of 9).
The variant Q27F L30Q Y31H showed 1.01, 1.07, 1.15 (controls 2 of 9).
The variant Y31L R60S L102I showed 3.54, 2.57, 2.49 (controls 1 of 9).
The variant K24V N35V A57F showed nd, nd, 4.64 (controls 3 of 9).
The variant L30Q N35A S62H showed 0.74, 0.97, 0.92 (controls 3 of 9).
The variant E32C Q95I S103K showed nd, 4.78, nd (controls 0 of 9).
The variant S33Y K36C Q96F showed 1.30, 1.40, 1.42 (controls 3 of 9).
The variant A40Q E61Y S103Q showed nd, nd, nd (controls 1 of 9).
The variant S28L N37S showed 1.39, 1.56, 2.46 (controls 0 of 9).
The variant S33Y R34W Q95A showed 0.61, 0.87, 0.92 (controls 3 of 9).
The variant S28F W56C S62K showed 1.78, 1.62, 1.35 (controls 0 of 9).
The variant A40E L100Q showed nd, nd, 5.52 (controls 3 of 9).

Extract of 4 entries:

With L30C P101M S103A the result was 1.69, 1.39, 1.51 (controls 0 of 9).
With S26Q Q27N S103K the result was 1.99, 2.08, 2.33 (controls 1 of 9).
With S28I L30Y the result was 1.11, 1.09, 1.10 (controls 5 of 9).
With A40Q E61Y S103Q the result was nd, nd, nd (controls 1 of 9).